Assay outcomes deposited in PubChem by National Center for Advancing Translational Sciences (NCATS).
miR-21 FLuc: raises the signal of a miR-21 reporter | Potency, µM (doses to about 38.3 µM), for inactives: top-dose reporter change, positive = more light | HeLa miR-21 FLuc reporter, luciferase, 48 h | AID 2288 | 340,000 tested, under 10 active; active = well fitted rising curve with a large enough effect; inconclusive = small, poorly fitted or top-dose-only effect; inactive = no such curve, though single readings can be large or run the other way;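 also: % of control where 0% means no effect; miR-21 action dims this reporter so a rising signal means less miR-21 action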
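HeLa cells endogenously expressing miR-21, stably carrying CMV-driven firefly luciferase with a downstream miR-21 binding site, 2000 cells/well. Titrations up to approximately 40 uM, 48 hours; luciferase luminescence read.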
Nrf2 inh: inhibitors of Nrf2 signaling; hit rate 2.1% among 360,000; AID 504444; A549 ARE-Fluc reporter, luciferase luminescence, 18-24 h; Potency, µM (top dose mostly 46 µM), for inactives: at the top dose activity change, negative = inhibition, most hits filed as inhibitors; also: potency is read from the fitted curve at half-maximal effect; % is scaled to controls: 0 for no effect and ±100 for the full control effect; nearly all actives have a fitted effect of over 60% in size
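Reporter: ARE-Fluc in A549. Exposure: 18-24 h, 37 °C, 5% CO2, 5% FBS OPTI-MEM. Readouts: fluorescent cytotoxicity (CellTiter-Fluor), then luminescent Nrf2 signal after BugLite.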
Mito fusion yeast: inhibitors of mitochondrial division or activators of mitochondrial fusion | S. cerevisiae fusion-defective mutant growth rescue, CellTiterGlo 48 h | Potency, µM (titrated, usually from 46.1 µM), for the others: at the highest dose growth rescue (activation), most hits filed as activators | hit rate 0.23% among 320,000 | AID 485298; also: potency is read from the fitted curve at half-maximal effect; % of control where 0% means no effect; nearly all actives have a fitted effect of over 45% in size
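Yeast fusion mutant, YPEG (non-fermentable carbon), compound, 48 h at 37C non-permissive; CellTiterGlo added, 10 min RT, luminescence read. Rescued growth = division inhibition.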
Nrf2 activator: activators of Nrf2 (ARE) signaling; AREc32 ARE-luciferase reporter (MCF7-derived line), luminescence, 24 h; Potency, µM (doses to about 46.1 µM), for inactives: at the top dose activation, most hits filed as activators; hit rate 0.31% among 410,000; AID 624171; also: potency is read from the fitted curve at half-maximal effect; % of control where 0% means no effect; nearly all actives have a fitted effect of over 65% in size
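Luminescent ARE reporter assay in AREc32_Fluc cells: overnight plating at 37 deg C, 24 hr compound incubation, Steady-Glo added, 30 min RT before reading.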
A549 viability: A549 cytotoxicity, counter-screen for Nrf2 inhibitors. A549 ARE-Fluc cells, CellTiter-Fluor viability, 18-24 h. Potency, µM (series often up to 46 µM), without a hit: at the highest dose activity change, negative = cytotoxicity, usual class: inhibitors. hit rate 0.16% among 390,000; also: potency is read from the fitted curve at half-maximal effect; % is scaled to controls: 0 for no effect and ±100 for the full control effect
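A549 ARE-Fluc cells in 5% FBS OPTI-MEM, 5000 cells/well, rested 2 h then exposed to compounds in concentration-response for 18-24 h at 37 °C. Viability by CellTiter-Fluor fluorescence (Ex 405/Em 525) after 30 min; luciferase luminescence (BugLite, 15 min, RT) read afterwards.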
Numbers without * were called inactive; ? = inconclusive; / = no result given; [ ] = remark or other dose. The list is not random: actives were taken first. Their share in the collection is about 2.3%. Calls follow the shape of the dose curve; as a rule, active = well fitted curve in the direction sought with a large enough effect; inconclusive = small, poorly fitted or top-dose-only effect, or another doubt; inactive = no such curve, though single readings can be large; an effect the other way counts as inactive or inconclusive.

1: COc1cc(/C=N/NC(=O)c2cc(-c3ccccc3)sc2N)cc(OC)c1OC
2: CCNc1cccc(S(=O)(=O)N2CCN(S(=O)(=O)c3ccc4c(c3)OCCO4)CC2)c1
3: Cc1ccc(-c2nc(CS(=O)CC(=O)N3CCN(c4cccc(Cl)c4)CC3)c(C)o2)cc1 (stereo not drawn)
4: Cc1oc(-c2ccc(Cl)cc2)nc1CS(=O)CC(=O)N1CCN(c2cccc(C(F)(F)F)c2)CC1 (stereo not drawn)
5: O=C(NC(=S)N(CCCCO)C1CCCCC1)c1sc2ccccc2c1Cl
6: CC(C)Oc1ccc(CN2CCc3nc(Nc4ccc5c(c4)OCCO5)ncc3C2)cc1
7: Cc1cc(N2CCCC(C(=O)Nc3ccc4c(c3)CCC4)C2)n2ncnc2n1 (stereo not drawn)
8: Cc1cccc(Nc2nc(N)nc(CCl)n2)c1C
assay / entry	1	2	3	4	5	6	7	8
Nrf2 activator	4.6%	/	3.1%	-3.9%	19.3%	0.6%	0.2%	18.7%
Mito fusion yeast	1.3%	/	/	/	12.0%	/	-0.2%	-4.0%
Nrf2 inh	16.4µM*	?	23.1µM*	/	11.6µM*	/	13µM*	10.3µM*
A549 viability	-12.3%	-8.0%	?	-14.4%	?	-14.4%	-14.4%	?
miR-21 FLuc	16.1%	/	?	27.4%	-16.4%	27.3%	-12.4%	?

3 compounds picked at random from those above, as already listed:
2: CCNc1cccc(S(=O)(=O)N2CCN(S(=O)(=O)c3ccc4c(c3)OCCO4)CC2)c1
7: Cc1cc(N2CCCC(C(=O)Nc3ccc4c(c3)CCC4)C2)n2ncnc2n1 (stereo not drawn)
1: COc1cc(/C=N/NC(=O)c2cc(-c3ccccc3)sc2N)cc(OC)c1OC
assay / entry	2	7	1
Nrf2 activator	/	0.2%	4.6%
Mito fusion yeast	/	-0.2%	1.3%
Nrf2 inh	?	13µM*	16.4µM*
A549 viability	-8.0%	-14.4%	-12.3%
miR-21 FLuc	/	-12.4%	16.1%

Carrying on.
9: Cc1ccccc1Nc1nc(N)nc(CSc2nc3ccccc3s2)n1
10: Cc1cccc(Nc2nc(N)nc(CCl)n2)c1
11: COc1cccc(Nc2nc(N)nc(CCl)n2)c1
12: COc1ccc(OC)c(Nc2nc(N)nc(CCl)n2)c1
13: NCCCNc1ncnc2ccc(-c3ccc4c(c3)OCO4)cc12
14: O=c1c2sc3ccccc3c2n(Cc2ccc(Cl)cc2)c(=O)n1Cc1ccco1
15: O=S(=O)(Nc1ccc2c(c1)nc1n2CCN(Cc2ccccc2)C1)c1ccc(Cl)cc1
16: Cc1ccc(S/C(=N/S(=O)(=O)c2ccc(Cl)cc2)c2ccccc2)cc1
assay / entry	9	10	11	12	13	14	15	16
Nrf2 activator	0.4%	14.1µM*	12.6µM*	25.4%	/	4.3%	-0.5%	/
Mito fusion yeast	20µM*	-2.3%	-6.9%	-7.7%	/	/	-0.4%	/
Nrf2 inh	?	4.7%	-4.8%	-42.9%	0.0%	-6.9%	13µM*	-4.5%
A549 viability	-14.0%	-12.7%	-8.7%	-8.4%	-7.6%	-0.9%	?	-8.3%
miR-21 FLuc	-42.5%	?	23.2%	?	/	2.6%	3.0%	/

17: Cc1ccccc1C(=O)Nc1sc2c(c1C(=O)N1CCC(C)CC1)CCC(C)C2 (stereo not drawn)
18: Oc1oc(-c2ccccc2)nc1/C=N/c1nccs1
19: Oc1oc(-c2ccccc2)nc1C=Nc1cccc2ccccc12
20: CCc1ccc([C@@H]2CC=C(C(=O)O)[C@H](c3ccc(C(C)(C)C)cc3)N2S(=O)(=O)c2ccc(C)cc2)cc1
21: Cc1ccc([C@H]2C(C(=O)O)=CC[C@@H](c3cccs3)N2S(=O)(=O)c2ccc(C)cc2)cc1
22: Cc1ccc(S(=O)(=O)N2[C@@H](c3ccc(Br)cc3)C(C(=O)O)=CC[C@H]2c2cccs2)cc1
23: Cc1ccc(S(=O)(=O)N2[C@@H](c3ccc(C(C)(C)C)cc3)C(C(=O)O)=CC[C@H]2c2ccc(Cl)cc2)cc1
24: Cc1ccc(S(=O)(=O)N2[C@@H](c3ccc(C(C)(C)C)cc3)C(C(=O)O)=CC[C@H]2c2ccc(C(C)C)cc2)cc1
assay / entry	17	18	19	20	21	22	23	24
Nrf2 activator	0.6%	?	?	0.9%	2.2%	1.9%	-0.2%	2.8%
Mito fusion yeast	/	-1.3%	11.2µM*	/	/	/	/	/
Nrf2 inh	-3.9%	13.0%	8.3%	20.6µM*	25.9µM*	?	18.4µM*	2.91µM*
A549 viability	10.6%	5.3%	-5.7%	?	?	-19.7%	-23.4%	?
miR-21 FLuc	-3.8%	-30.1%	-0.9%	/	/	/	/	/

25: CCc1cccc(C)c1NS(=O)(=O)c1ccc2c(c1)NC(=O)C(C)C(=O)N2 (stereo not drawn)
26: CCN(CC)c1ccc(NC(=O)C2CCN(S(=O)(=O)c3ccc4c(c3)oc(=O)n4C)CC2)c(C)c1
27: Cc1ccc([C@@H]2CC=C(C(=O)O)[C@H](c3ccc(C(C)(C)C)cc3)N2S(=O)(=O)c2ccc(C)cc2)cc1
28: Cc1ccc(S(=O)(=O)N2[C@@H](c3ccc(C(C)(C)C)cc3)C(C(=O)O)=CC[C@H]2c2cccs2)cc1
29: CCCOc1ccc(C(=O)NNC(=S)NC(=O)CC)cc1
30: O=C(Nc1ccc(Br)cc1)c1cccc(S(=O)(=O)Nc2ccccn2)c1
31: O=C(Nc1ccccc1)c1cccc(S(=O)(=O)Nc2ccccn2)c1
32: O=C(c1cc(Br)ccc1O)N(Cc1ccco1)Cc1cccs1
assay / entry	25	26	27	28	29	30	31	32
Nrf2 activator	0.1%	0.0%	3.6%	3.8%	-0.4%	0.7%	0.2%	/
Mito fusion yeast	/	/	/	/	-28.3%	-0.2%	0.4%	/
Nrf2 inh	/	-9.1%	18.4µM*	?	4.61µM*	13µM*	-8.2%	9.9%
A549 viability	19.5%	-0.3%	-22.7%	-20.9%	?	?	3.3%	-0.2%
miR-21 FLuc	-2.2%	4.5%	/	/	20.3%	-1.2%	2.2%	/

33: CCCC(C)C(=O)Nc1nc(C)c(-c2csc(Nc3ccc(Cl)cc3)n2)s1 (stereo not drawn)
34: CCCC(C)C(=O)Nc1nc(C)c(-c2csc(Nc3ccccc3OC)n2)s1 (stereo not drawn)
35: CCC(C)C(=O)Nc1nc(C)c(-c2csc(Nc3cc(Cl)ccc3OC)n2)s1 (stereo not drawn)
36: CCC(C)C(=O)Nc1nc(C)c(-c2csc(Nc3cc(OC)ccc3OC)n2)s1 (stereo not drawn)
37: Cc1ccc(C)c(N2CCN(C(=O)CCCOc3cc(=O)n(C)c4ccccc34)CC2)c1
38: CN1CCCc2cc(C=O)ccc21
39: CCCN1CCCc2cc(CN)ccc21
40: O=C(CCOc1ccccc1)N(Cc1cccnc1)c1nc2ccc(F)cc2s1
assay / entry	33	34	35	36	37	38	39	40
Nrf2 activator	3.9%	4.1%	-0.3%	0.4%	-0.1%	0.4%	2.4%	4.1%
Mito fusion yeast	-4.5%	2.1%	-1.6%	1.7%	7.7%	7.5%	-4.9%	/
Nrf2 inh	14.6µM*	-21.0%	8.2µM*	?	23.1µM*	-8.5%	9.2µM*	/
A549 viability	-12.3%	-2.5%	-4.2%	-7.7%	?	-9.0%	0.4%[1.84 µM]	-2.2%
miR-21 FLuc	22.5%	20.4%	24.7%	8.7%	29.0%	1.3%	18.7%	-11.2%

41: CCOC(=O)c1cc(-c2ccc3c(c2)OCCO3)nc2c1c(C)nn2CCC#N
42: CCOC(=O)c1cc(-c2ccc(Cl)cc2)nc2c1c(C)nn2CCC#N
43: CC(=O)Nc1cccc(C(=O)OCC(=O)NC(=O)C2CCCCC2)c1
44: Cc1n(Cc2ccccc2)c2cc([N+](=O)[O-])ccc2[n+]1Cc1ccccc1
45: Cc1n(Cc2ccccc2)c2ccccc2[n+]1Cc1ccccc1
46: CC(=O)c1cccc(NS(=O)(=O)c2ccc(N/C=C\C(=O)c3ccc(F)cc3)cc2)c1
47: CC(=O)c1cccc(NS(=O)(=O)c2ccc(N/C=C/C(=O)c3ccc(F)cc3)cc2)c1
48: CCOc1cc(Cl)c(S(=O)(=O)NCCCn2ccnc2)cc1Cl
assay / entry	41	42	43	44	45	46	47	48
Nrf2 activator	0.3%	2.3%	/	-1.1%	-0.5%	4.6%	2.4%	-0.1%
Mito fusion yeast	12.2%	0.8%	/	0.1%	-7.7%	0.2%	7.2%	-0.6%
Nrf2 inh	20.6µM*	?	8.5%	0.4%	16.4µM*	25.9µM*	?	16.4µM*
A549 viability	-1.0%	-4.9%	6.0%	2.9%	-7.0%	?	?	-8.9%
miR-21 FLuc	-9.2%	-4.2%	/	1.4%	?	25.2%	?	5.1%
